Experimental data: EP0444945A2, “Use of spirocyclic compounds as oxytocin antagonists” (MERCK & CO. INC., priority 1990, dated 1991)

Biological target: T1, uterine OT receptors (Rattus norvegicus, UniProt P70536)
T1 construct: from tissue; host or cells: uterus of DES-treated rats, crude membrane preparation
T1 sequence (P70536 1-388): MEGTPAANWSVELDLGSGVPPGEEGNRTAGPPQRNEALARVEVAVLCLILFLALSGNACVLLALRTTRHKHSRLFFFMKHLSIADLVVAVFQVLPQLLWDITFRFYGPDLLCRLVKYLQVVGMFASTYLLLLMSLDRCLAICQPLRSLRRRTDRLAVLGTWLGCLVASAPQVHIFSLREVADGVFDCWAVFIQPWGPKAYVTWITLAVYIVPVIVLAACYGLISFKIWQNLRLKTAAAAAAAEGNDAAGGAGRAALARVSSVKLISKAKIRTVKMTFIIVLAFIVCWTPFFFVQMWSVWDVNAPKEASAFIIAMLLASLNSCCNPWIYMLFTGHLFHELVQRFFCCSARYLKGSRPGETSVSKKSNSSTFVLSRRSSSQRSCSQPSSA
Assay: [³H]OT radioligand binding assay, crude uterine membrane preparation
Settings: 1 nM [³H]OT, uteri of DES-treated rats, 60 min, 22°C; read-out: Inhibition Oxytocin IC50
Protocol: Competition studies were conducted at equilibrium (60 min; 22°C) using 1 nM [³H]OT in the following assay buffer: 50 mM Tris-HCl, 5 mM MgCl₂, and 0.1% BSA, pH 7.4.

Cc1ccc(S(=O)(=O)N2CCC3(C=Cc4ccccc43)CC2)cc1 [Example 2]
IC50: 4.7 µM
